Test results: patent publication US20260384438A1, “PYRROLOPYRIMIDINE CARBOXAMIDES” (published 2026)

Amino acid sequences for entries named in this document (tags omitted). Residues count along the entry.
UniProt Q99640, whole entry: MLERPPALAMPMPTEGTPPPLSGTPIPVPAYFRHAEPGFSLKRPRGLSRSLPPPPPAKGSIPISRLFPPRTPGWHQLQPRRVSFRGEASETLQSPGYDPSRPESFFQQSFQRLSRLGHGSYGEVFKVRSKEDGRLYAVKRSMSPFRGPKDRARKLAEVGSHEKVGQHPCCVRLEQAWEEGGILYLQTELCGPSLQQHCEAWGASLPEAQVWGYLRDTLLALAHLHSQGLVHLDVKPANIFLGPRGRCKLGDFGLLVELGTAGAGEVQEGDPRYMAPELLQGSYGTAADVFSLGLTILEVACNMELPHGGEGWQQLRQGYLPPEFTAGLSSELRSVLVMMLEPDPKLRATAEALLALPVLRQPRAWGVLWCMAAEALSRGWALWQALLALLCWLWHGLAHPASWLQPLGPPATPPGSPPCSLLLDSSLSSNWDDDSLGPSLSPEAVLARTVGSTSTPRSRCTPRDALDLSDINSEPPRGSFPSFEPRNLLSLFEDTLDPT
UniProt P54753, 34-998 limits assumed: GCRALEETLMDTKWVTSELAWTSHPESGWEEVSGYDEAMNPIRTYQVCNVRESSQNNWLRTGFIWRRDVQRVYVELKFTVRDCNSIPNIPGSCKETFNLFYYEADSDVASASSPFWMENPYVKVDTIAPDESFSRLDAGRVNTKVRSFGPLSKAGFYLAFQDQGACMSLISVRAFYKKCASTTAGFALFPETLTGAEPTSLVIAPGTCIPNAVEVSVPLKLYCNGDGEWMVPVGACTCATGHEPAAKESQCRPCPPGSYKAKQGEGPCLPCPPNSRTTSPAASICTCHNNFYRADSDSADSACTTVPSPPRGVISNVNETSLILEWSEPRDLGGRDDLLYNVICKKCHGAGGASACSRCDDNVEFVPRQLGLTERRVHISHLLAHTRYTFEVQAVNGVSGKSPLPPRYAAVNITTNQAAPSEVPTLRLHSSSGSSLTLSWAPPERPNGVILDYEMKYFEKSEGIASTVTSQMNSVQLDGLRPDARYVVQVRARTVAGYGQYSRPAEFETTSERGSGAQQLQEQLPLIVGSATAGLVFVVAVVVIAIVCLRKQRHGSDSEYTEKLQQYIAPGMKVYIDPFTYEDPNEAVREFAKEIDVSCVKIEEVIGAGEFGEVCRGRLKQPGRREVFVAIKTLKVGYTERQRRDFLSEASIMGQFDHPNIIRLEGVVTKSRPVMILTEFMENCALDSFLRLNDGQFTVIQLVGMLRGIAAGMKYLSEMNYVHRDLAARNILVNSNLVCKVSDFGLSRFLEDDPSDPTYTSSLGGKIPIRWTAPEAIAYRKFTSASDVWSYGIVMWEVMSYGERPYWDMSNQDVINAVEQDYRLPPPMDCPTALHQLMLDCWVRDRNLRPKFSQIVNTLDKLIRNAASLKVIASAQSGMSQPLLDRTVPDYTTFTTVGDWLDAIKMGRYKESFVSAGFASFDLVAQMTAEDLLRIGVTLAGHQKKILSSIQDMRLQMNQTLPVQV
UniProt P30291, whole entry: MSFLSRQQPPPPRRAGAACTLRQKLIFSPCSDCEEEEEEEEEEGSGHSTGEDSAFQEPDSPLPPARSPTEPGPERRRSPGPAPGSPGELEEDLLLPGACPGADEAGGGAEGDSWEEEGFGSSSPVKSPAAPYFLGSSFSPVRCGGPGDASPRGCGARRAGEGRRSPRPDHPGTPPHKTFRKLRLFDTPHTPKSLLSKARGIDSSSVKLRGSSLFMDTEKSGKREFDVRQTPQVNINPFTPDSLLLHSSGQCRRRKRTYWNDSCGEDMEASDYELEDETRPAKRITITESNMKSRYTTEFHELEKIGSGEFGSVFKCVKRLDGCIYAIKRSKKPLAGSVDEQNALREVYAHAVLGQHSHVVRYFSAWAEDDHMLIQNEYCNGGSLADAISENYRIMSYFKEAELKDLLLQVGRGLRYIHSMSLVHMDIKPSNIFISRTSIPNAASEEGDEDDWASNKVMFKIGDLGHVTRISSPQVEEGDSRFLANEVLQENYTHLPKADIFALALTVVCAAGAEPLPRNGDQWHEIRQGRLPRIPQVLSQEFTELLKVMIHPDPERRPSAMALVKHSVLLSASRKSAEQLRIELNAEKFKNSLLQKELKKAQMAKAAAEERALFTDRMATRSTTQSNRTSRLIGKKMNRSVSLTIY

Assays:
OVCAR3 tumors = experiment: Human ovarian OVCAR3 cell line-derived xenograft model in female SCID mice; details: 20 mg/kg Gemcitabine intraperitoneal once weekly
[1] = Metabolic stability in human liver microsomes (HLM); details: human liver microsomes 1 mg/mL, 1 μM
PKMYT1 = PKMYT1 (Homo sapiens, UniProt Q99640); experiment: NanoBRET target engagement in HEK293T cells, PKMYT1; details: read-out: PKMYT1 INHIBITION IC50, 2 h
OVCAR3 cells = experiment: Cellular proliferation (Hoechst staining), OVCAR3; details: read-out: OVCAR3 GI50; CCNE1-amplified, 4 days
Log D octanol/PBS pH 7.4 = details: octanol/PBS pH 7.4, 1 μM
SKOV3 cells = experiment: Cellular proliferation (Hoechst staining), SKOV3; details: read-out: SKOV3 GI50; CCNE1-nonamplified, 4 days
[2] = biological target: CDK1 pThr14 (PKMYT1 substrate), FUOV-1 cells (Homo sapiens, UniProt Q99640); experiment: Functional CDK1 pThr14 AlphaLISA assay in FUOV-1 cells; details: read-out: pCDk1(Thr14) INHIBITION IC50, 2 h
EPHB3 = EPHB3 (Homo sapiens, UniProt P54753); experiment: NanoBRET target engagement in HEK293T cells, EPHB3; details: read-out: EPHB3 INHIBITION IC50, 2 h
WEE1 = WEE1 (Homo sapiens, UniProt P30291); experiment: NanoBRET target engagement in HEK293T cells, WEE1; details: read-out: WEE1 INHIBITION IC50, 2 h
Caco-2 cell permeability = details: 10 μM; for Caco-2 A-B Papp: 2 h, 37 °C; for Caco-2 EFFLUX RATIO: Papp(B to A)/Papp(A to B)
[3] = Aqueous (thermodynamic) solubility, pH 7.4; details: 0.1 M phosphate buffer pH 7.4, 24 h, 25 °C
[4] = Metabolic stability in human hepatocytes in suspension (hHEP); details: 1 μM

Row | SMILES | TGI vs vehicle (Day 21) (OVCAR3 tumors) | HLM (CLint) [1] | IC50 (PKMYT1) | GI50 (OVCAR3 cells) | LogD (Log D octanol/PBS pH 7.4) | GI50 (SKOV3 cells) | IC50 [2] | IC50 (EPHB3) | IC50 (WEE1) | Caco-2 A-B Papp (Caco-2 cell permeability) | Caco-2 EFFLUX RATIO (Caco-2 cell permeability) | Solubility pH 7.4 [3] | Hhep (CLint) [4]
1 | Nc1ccn([C@@H]2O[C@H](CO)[C@@H](O)C2(F)F)c(=O)n1 | 63% |  |  |  |  |  |  |  |  |  |  |  | 
2 | Cc1ccc(O)c(C)c1-n1c(N)c(C(N)=O)c2cnc(N3CCOCC3)nc21 (racemic) |  | 15.462 µL/min/mg | 0.024 µM | 8.64 µM | 2.01 | > 23 µM | 0.313 µM | 0.088 µM | > 9.97 µM | 18.249 1E−6.cm/s | 23.3 | >1000 μM | 
3 | Cc1nc(C)c2c(C(N)=O)c(N)n(-c3c(C)ccc(O)c3C)c2n1 (racemic) |  | <3.000 µL/min/mg | 0.063 µM | 6.12 µM | 0.8 | > 30 µM | 0.228 µM | > 6.8 µM | > 9.97 µM | 4.366 1E−6.cm/s | 12.2 | 395 μM | 
4 | Cc1nc(C(F)F)c2c(C(N)=O)c(N)n(-c3c(C)ccc(O)c3C)c2n1 (single isomer, unassigned) |  | <3.000 µL/min/mg | 0.016 µM | 4.9 µM | 1.18 | > 29.9 µM | 0.145 µM | 3.1 µM | > 9.97 µM | 21.006 1E−6.cm/s | 3.8 | >1000 μM | <1.000 μl/min/1E6
5 | Cc1nc(C2CC2)c2c(C(N)=O)c(N)n(-c3c(C)ccc(O)c3C)c2n1 (single isomer, unassigned) |  | 19.567 µL/min/mg | 0.01 µM | 1.78 µM | 1.87 | > 10.6 µM | 0.028 µM | 1.89 µM | > 9.97 µM | 35.644 1E−6.cm/s | 2.43 | >958 μM | 4.441 μl/min/1E6
6 | CCc1ncc2c(n1)c(-c1cc(O)ccc1C)c(N)n2C(N)=O (single isomer, unassigned) [49, Isomer 1] |  | 12.016 µL/min/mg | 0.01 µM | 3.07 µM |  | 24.1 µM | 0.127 µM | 0.796 µM | > 9.96 µM | 8.018 1E−6.cm/s | 11.9 |  | <1.000 μl/min/1E6
7 | Cc1ccc(O)c(C)c1-n1c(N)c(C(N)=O)c2cnc(Cl)nc21 (single isomer, unassigned) [57, Isomer 2] |  | 10.481 µL/min/mg | 0.011 µM | 3.98 µM |  | > 30 µM |  | 1.25 µM | > 10 µM | 11.238 1E−6.cm/s | 7.97 |  | 1.072 μl/min/1E6
8 | Cc1ccc(O)c(C)c1-n1c(N)c(C(N)=O)c2cnc(N3CCN(C)CC3)nc21 (single isomer, unassigned) [70, Isomer 1] |  | 10.024 µL/min/mg | 0.016 µM | 5.77 µM |  | > 17 µM | 0.115 µM | 0.103 µM | > 10 µM | 4.047 1E−6.cm/s | 5.58 |  | <1.000 μl/min/1E6
9 | Cc1ncc2c(C(N)=O)c(N)n(-c3c(Cl)ccc(O)c3C)c2n1 (single isomer, unassigned) [73, Isomer 1] |  |  | 0.011 µM | 0.503 µM |  | 4.15 µM | 0.068 µM | 2.72 µM | 2.53 µM | 4.046 1E−6.cm/s | 18.5 |  | 3.392 μl/min/1E6
10 | CCn1cc2c(C(N)=O)c(N)n(-c3c(C)ccc(O)c3C)c2nc1=O (single isomer, unassigned) [79, Isomer 1] |  | <3.000 µL/min/mg | 0.304 µM | 4.13 µM |  | 21.2 µM | 0.59 µM | 0.786 µM | > 9.97 µM | 0.859 1E−6.cm/s | 12.7 |  | 
